Measurements published in paper PMC8063737, “Mechanistic analysis of actin-binding compounds that affect the kinetics of cardiac myosin–actin interaction” (The Journal of Biological Chemistry, 2021).

Key:
[1] = biological target: T1, rigor PFA.S1 complex (cardiac myosin S1) (Oryctolagus cuniculus, UniProt P68135); assay: Stopped-flow ATP-induced dissociation of actin-S1 complex (ATP binding and isomerization); type: biochemical, bovine
T1 construct: Rabbit skeletal F-actin was prepared as described previously from acetone powder; tissue Pelfreez Biologicals (bovine left ventricular muscle); host or cells: rabbit skeletal muscle (actin); bovine left ventricular muscle (myosin S1)
Method: To determine the equilibrium constant K1 for the formation of the collision complex, A.M.T, the rigor complex of PFA and myosin-S1 complex was formed in one syringe and the Mg.ATP placed in another syringe. […] (Equation 10). The rate constant k+2 was determined from hyperbolic plots of kobs1 versus [MgATP] […] The association equilibrium constant K1 was determined from the ratio of K1k+2/k+2.
Experiments were performed at 25 °C with filtered and degassed solutions. The instrument dead time for single-mix experiments was 1.3 ms. Samples were excited at 365 nm, and pyrene emission fluorescence was acquired with a 2 mm path length and 400 nm long-pass filter. Data analysis was done using the program, ORIGIN (OriginLab Corp).
K1 was determined by mixing the rigor complex of PFA.S1 (A.M) (final concentration of 0.05 μM) with varying final concentrations of MgATP (12.5–1000 μM) in F-Mg buffer in the absence and presence of the compounds, whereby the PFA.compound complex was first made, then mixed with S1, and placed in one syringe, and MgATP solution was placed in the other syringe. The transient curves were fitted to rate constants, kobs, fast and kobs, slow, and with corresponding amplitudes A1 and A2.

[2] = biological target: T2, pyrene-labeled F-actin (PFA) (Oryctolagus cuniculus, UniProt P68135); assay: Compound binding to pyrene-labeled F-actin, steady-state fluorescence dose response; design: species or system rabbit
T2 construct: Rabbit skeletal F-actin was prepared as described previously from acetone powder; from tissue; host or cells: rabbit skeletal muscle (acetone powder)

[3] = biological target: T3, PFA.C.S1 complex (F-actin with cardiac S1) (Oryctolagus cuniculus, UniProt P68135); assay: Steady-state S1 binding to and ATP-induced dissociation from the PFA.compound complex; type: biochemical, bovine; conditions: 0.7:1 S1:actin, rigor; compound 100 μM except Flu and Dan 50 μM, Mit 10 μM
T3 construct: Rabbit skeletal F-actin was prepared as described previously from acetone powder; tissue Pelfreez Biologicals (bovine left ventricular muscle); host or cells: rabbit skeletal muscle (actin); bovine left ventricular muscle (myosin S1)
Method: We then added Mg.ATP and measured PFA fluorescence (Fig. 8B, peach bars).
Fluorescence spectra of 2 μM PFA in F-Mg buffer were acquired with a Cary spectrophotometer. The sample was placed in a cuvette in a temperature-controlled holder and excited with a Xenon flash lamp at 365 nm with 5 nm slit width. Emission fluorescence intensity was acquired and averaged for 30 s at 407 nm with a 10 nm slit width. […] Fluorescence intensity (F) was corrected for each compound's emission at 407 nm.
Fcalc was determined from normalized fluorescence intensity:(5) Fcalc=(FCompound+F0.7S1)

SMILES: OCCN1CCN(CCCN2c3ccccc3Sc3ccc(C(F)(F)F)cc32)CC1 [Flp]
- increase in K1 versus control [1]: ≥ 2 factor
- overall category of compound effect ([1]; severe if at least one parameter (K1 or k+2) was affected >3-fold): severe (severe effects to be >3-fold)
- effect on PFA (pyrene) fluorescence, dose-response ([2]; 2.5–150 μM compound, 2 μM PFA): decreased PFA fluorescence with hyperbolic dependence
- effect of MgATP on fluorescence of PFA–compound complexes ([2]; 200-500 μM MgATP): increased PFA fluorescence in the presence of MgATP
- decrease in PFA fluorescence of PFA.compound.S1, experimental versus calculated (Fcalc) [3]: smaller decrease in PFA fluorescence than expected
